Experimental data published in patent publication US8350049B2, “Immobilized 1,2-benzisothiazolin-3-one” (priority 2006, dated 2013).

Assay: HPLC analysis of free (methanol-soluble) and immobilized BIT in a BIT/ZnO complex
Assay type: physicochemical
Protocol: For purposes of this invention, “immobilized BIT” and “free BIT” are defined in operational terms based on the fact that BIT per se is soluble in methanol at greater than 5%, i.e., 5 grams of pure BIT will be completely soluble in 100 ml of methanol. […]
Approximately 500 mg of the BIT/ZnO complex is weighed exactly (exact weight can vary depending upon the expected “free” BIT content of the complex being analyzed) into a 100 ml flask. A quantity of 50 ml of methanol (HPLC-grade) is added. […] The reaction mixture is then filtered over a 0.25μ membrane filter (e.g., Millipore) and is ready to be injected into an HPLC-column.
The HPLC-conditions for analysis of the “free” BIT is the same as set out above in part 1. The amount of “free” BIT in the BIT/ZnO complex is then determined by comparison to an external standard (150 mg BIT/1 liter methanol).
The BIT/ZnO product was analyzed by heating 300 mg at 60° C. for 10 minutes with 50 ml of a 5% solution of sodium hydroxide in methanol. Sufficient methanol was added to bring the solution to 100 ml and the resulting solution was filtered through a 0.45 micron filter and injected into a RP-18 HPLC column (eluent was an acetonitrile/water mixture.) The amount of BIT was determined using an external standard and a UV detector operating at 310 nm. […]

## bis-(1,2-Benzisothiazolin-3-one)zinc(II)chloride [Example 1]
  solubility of the complex in methanol: almost completely soluble in methanol
Free BIT by HPLC, % of the product
  soluble BIT from methanol extract: 63%
